Results taken from US20070185094A1, “Novel 3-substitued-1,4-benzodiazepines” (ASTON UNIVERSITY, priority 2003, published 2007).
pIC50: −log10 of the molar value. Where two headings read alike, the source gives them in different places.

Chains of the proteins cited; added tags and fusions are not shown. Residues count along the entry.
UniProt H0VZC5, 1-426: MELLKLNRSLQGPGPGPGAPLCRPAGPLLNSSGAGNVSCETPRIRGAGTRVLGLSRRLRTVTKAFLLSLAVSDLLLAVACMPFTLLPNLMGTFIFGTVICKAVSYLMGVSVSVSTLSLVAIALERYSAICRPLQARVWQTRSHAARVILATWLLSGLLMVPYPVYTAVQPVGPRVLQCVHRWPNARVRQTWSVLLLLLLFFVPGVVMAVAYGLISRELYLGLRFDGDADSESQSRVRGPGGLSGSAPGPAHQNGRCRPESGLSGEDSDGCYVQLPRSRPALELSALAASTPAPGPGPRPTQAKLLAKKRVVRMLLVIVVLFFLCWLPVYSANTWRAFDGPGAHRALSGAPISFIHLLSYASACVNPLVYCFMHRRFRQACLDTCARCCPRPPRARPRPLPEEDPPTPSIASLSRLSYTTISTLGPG
UniProt P30551, whole entry: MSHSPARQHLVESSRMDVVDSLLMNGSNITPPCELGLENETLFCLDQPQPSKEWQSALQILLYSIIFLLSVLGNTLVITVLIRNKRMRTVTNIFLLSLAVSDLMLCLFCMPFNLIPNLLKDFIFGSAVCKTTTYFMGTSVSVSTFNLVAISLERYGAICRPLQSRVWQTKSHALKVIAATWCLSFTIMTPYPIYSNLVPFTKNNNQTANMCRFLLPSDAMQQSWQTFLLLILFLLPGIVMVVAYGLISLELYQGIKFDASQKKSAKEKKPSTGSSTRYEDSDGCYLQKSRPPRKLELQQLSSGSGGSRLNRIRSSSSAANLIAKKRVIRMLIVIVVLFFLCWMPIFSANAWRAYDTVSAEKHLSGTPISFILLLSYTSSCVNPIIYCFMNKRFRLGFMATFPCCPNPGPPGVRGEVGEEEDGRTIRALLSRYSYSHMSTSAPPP

How the values were obtained:
CCKB receptor = CCKB receptor (Cavia porcellus, UniProt H0VZC5); test: 125I-CCK-8 receptor binding assay, CCKB (guinea pig cerebral cortex)
Protocol: CCKA and CCKB receptor binding assays were performed, by using guinea pig cerebral cortex (CCKB) or rat pancreas (CCKA). […]. J. Pharmacol., 269, 249-254]. Pancreatic membranes were prepared in a similar way but by Charpentier et al [(1988), Cyclic cholecystokinin analogues with high selectivity for central receptors., Proc Natl Acad Sci USA, 85, 1968-1972]. The […] CCK binding assay: Tissues were homogenised in ice cold sucrose (0.32 M, 25 ml) for 15 strokes at 500 rpm and centrifuged at 13000 rpm for 10 mins. The supernatant was re-centrifuged at 13000 rpm for 20 mins. The resulting pellet was re-dispersed to the required volume of buffer at 500 rpm and stored in aliquots at […].
The samples were incubated {with membranes (0.1 mg/ml)} in 20 mM Hepes, 1 mM EGTA, 5 mM MgCl2, 150 mm NaCl, 0.25 mg/ml bacitracin at pH 6.5 for 2 hrs at RT and then […] by centrifugation at 1100 rpm for 5 minutes. The membrane pellets were washed twice with water and the bound radioactivity was measured in a Packard Cobra Auto-gamma counter (B5005). All binding assays were carried out with L-363, 260 as an internal non-specific standard. Controls (no compound) were also added. All samples were made in duplicate and repeated twice. All compounds were initially screened for percentage inhibition at 20 μM. […]

CCKA receptor = CCKA receptor (Rattus norvegicus, UniProt P30551); test: 125I-CCK-8 receptor binding assay, CCKA (rat pancreas)

Compound	pIC50 (CCKB receptor; read-out: CCKB IC50, Table 1)	pIC50 (CCKB receptor; read-out: IC50 CCKB, Table 3)	Ratio CCKB:CCKA (CCKA receptor; Table 3, ratio of IC50 values)	pIC50 (CCKA receptor; read-out: IC50 CCKA)
O=C1Nc2ccc(Cl)cc2C(c2ccccc2)=NC1Nc1cc2ccc3cccc4ccc(c1)c2c34 (stereo not shown)	6.08			
Cc1cccc(NC2N=C(c3ccccc3)c3cc(Cl)ccc3NC2=O)c1 (stereo not shown)		5.42	380	7.96
